Values quoted from earlier work in patent publication US20250082647A1, “SPECIFIC DOSAGE OF PHENOTHIAZINE COMPOUNDS FOR USE IN TREATMENT OR PREVENTION OF ALZHEIMER'S DEMENTIA” (IMMUNGENETICS AG, priority 2022, published 2025).

Sequences of proteins named here, by UniProt entry; tags and fusion partners are left off. A change or cut given only in a name is not applied to a line headed by its entry.
UniProt O35379: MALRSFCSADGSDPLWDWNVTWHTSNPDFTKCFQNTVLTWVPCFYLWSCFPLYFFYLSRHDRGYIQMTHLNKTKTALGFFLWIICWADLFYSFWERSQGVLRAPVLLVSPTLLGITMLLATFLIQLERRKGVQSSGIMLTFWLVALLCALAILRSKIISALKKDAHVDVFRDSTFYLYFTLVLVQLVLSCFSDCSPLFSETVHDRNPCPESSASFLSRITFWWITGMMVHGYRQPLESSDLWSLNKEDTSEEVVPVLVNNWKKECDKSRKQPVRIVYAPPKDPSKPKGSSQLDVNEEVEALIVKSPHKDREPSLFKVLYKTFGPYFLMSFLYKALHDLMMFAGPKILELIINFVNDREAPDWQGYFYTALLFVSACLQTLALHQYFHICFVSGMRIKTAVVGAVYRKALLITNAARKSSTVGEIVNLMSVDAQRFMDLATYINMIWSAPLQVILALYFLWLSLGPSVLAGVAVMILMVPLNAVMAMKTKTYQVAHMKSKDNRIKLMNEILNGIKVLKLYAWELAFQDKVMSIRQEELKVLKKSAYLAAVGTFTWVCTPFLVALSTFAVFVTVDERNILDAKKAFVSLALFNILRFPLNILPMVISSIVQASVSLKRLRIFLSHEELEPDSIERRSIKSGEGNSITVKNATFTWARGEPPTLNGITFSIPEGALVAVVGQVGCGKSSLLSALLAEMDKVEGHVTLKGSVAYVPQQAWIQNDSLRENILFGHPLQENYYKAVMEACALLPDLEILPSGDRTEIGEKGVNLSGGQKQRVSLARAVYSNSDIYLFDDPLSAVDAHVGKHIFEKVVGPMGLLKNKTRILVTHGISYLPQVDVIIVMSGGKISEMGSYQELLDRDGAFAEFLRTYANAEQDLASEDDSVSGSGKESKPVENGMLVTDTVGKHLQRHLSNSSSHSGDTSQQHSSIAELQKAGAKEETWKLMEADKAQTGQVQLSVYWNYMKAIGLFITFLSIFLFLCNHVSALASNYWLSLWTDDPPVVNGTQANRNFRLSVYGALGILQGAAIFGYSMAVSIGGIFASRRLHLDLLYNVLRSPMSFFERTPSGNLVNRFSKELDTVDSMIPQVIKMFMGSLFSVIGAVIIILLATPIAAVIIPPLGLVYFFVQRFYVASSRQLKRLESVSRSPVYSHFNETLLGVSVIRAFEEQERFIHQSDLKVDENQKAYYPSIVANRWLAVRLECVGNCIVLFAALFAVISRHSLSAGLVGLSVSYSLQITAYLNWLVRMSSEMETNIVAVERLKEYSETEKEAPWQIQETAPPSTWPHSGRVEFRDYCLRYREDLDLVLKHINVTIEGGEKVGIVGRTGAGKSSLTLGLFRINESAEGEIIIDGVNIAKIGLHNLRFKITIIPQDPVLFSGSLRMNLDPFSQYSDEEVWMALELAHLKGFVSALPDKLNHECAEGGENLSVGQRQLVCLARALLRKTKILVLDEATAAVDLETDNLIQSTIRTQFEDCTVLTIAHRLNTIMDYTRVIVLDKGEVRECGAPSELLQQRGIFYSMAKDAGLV

Columns and labels:
[1] = molecular target: T1, transport protein ABCC1 (Mus musculus, UniProt O35379); conditions: mice; cited from earlier work
T1 construct: thiethylperazine has been proven effective in murine models of Alzheimer's disease (AD); host or cells: mice (murine models of Alzheimer's disease), blood-brain barrier endothelium

[2] = system: ABCC1 overexpressing BE(2)-m17 cells; conditions: simultaneous overexpression of ABCC1 in BE(2)-m17 cells, fluorescent Abeta-42; cited from earlier work
[3] = system: wild-type human BE(2)-m17 neuroblastoma cells; conditions: wild-type BE(2)-m17 cells incubated with fluorescent Abeta-42; cited from earlier work

CCSc1ccc2c(c1)N(CCCN1CCN(C)CC1)c1ccccc1S2 [thiethylperazine, 2-(ethylsulfanyl)-10-[3-(4-methylpiperazin-1-yl)propyl]-10H-phenothiazine]
activation of the transport protein ABCC1 that clears beta-amyloid from brains [1]: activates | decrease of cells that efficiently took up Abeta-42 [2]: 44.4% | decrease of wild-type cells that efficiently took up Abeta-42 [3]: 29.6%
